From paper PMC4449328 (European neuropsychopharmacology : the journal of the …, 2014)

Sequences of proteins named here, by UniProt entry; tags and fusion partners are left off.
UniProt P35462, whole entry: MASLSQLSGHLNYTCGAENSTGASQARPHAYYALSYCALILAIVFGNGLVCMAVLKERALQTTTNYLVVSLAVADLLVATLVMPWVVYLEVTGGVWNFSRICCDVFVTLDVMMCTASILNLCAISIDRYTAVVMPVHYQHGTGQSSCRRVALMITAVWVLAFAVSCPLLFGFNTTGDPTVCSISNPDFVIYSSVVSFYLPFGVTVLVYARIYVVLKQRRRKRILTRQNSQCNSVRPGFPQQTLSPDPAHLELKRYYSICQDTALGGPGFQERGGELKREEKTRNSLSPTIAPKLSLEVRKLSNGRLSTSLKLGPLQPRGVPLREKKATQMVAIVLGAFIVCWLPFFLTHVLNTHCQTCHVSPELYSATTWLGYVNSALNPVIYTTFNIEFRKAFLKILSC

Molecular target: D3 dopamine receptor (Homo sapiens, UniProt P35462)
Experiment: β-arrestin recruitment assay
Type: cell-based

Q: Which IC50 does the source give for `CCN1CCCC1CNC(=O)c1cc(S(N)(=O)=O)ccc1OC` (stereo not shown) [sulpiride] here?
A: 41.8 nM
